Structures are written as SMILES. Bounds are passed on as bounds.

Chains of the proteins cited; added tags and fusions are not shown. Residues count along the entry.
UniProt P36888, 27-993 limits assumed: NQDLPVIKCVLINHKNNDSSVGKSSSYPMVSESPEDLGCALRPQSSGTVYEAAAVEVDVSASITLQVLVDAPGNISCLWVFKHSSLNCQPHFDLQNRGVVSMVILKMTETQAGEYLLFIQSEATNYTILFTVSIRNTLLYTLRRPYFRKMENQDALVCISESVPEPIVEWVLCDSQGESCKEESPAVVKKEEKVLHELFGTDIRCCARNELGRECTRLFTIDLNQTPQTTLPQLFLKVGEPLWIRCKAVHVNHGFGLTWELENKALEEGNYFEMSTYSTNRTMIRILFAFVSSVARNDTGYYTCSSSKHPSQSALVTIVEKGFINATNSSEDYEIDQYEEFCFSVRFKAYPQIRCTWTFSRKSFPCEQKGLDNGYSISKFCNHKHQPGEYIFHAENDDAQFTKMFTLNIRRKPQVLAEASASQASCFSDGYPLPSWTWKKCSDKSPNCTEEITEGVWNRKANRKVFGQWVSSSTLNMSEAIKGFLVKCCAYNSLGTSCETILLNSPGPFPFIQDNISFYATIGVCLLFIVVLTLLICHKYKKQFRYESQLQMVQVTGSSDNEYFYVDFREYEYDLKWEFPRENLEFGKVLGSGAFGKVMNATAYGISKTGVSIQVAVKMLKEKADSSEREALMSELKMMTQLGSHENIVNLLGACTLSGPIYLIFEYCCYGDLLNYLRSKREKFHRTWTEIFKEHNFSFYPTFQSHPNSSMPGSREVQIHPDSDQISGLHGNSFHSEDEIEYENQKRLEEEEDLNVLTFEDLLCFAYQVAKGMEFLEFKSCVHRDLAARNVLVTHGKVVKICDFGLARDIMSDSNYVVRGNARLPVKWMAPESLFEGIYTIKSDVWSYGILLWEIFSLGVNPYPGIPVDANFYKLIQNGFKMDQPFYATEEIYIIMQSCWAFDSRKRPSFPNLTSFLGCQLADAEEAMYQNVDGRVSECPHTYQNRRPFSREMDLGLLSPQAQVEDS
UniProt P09619, 33-1106 limits assumed: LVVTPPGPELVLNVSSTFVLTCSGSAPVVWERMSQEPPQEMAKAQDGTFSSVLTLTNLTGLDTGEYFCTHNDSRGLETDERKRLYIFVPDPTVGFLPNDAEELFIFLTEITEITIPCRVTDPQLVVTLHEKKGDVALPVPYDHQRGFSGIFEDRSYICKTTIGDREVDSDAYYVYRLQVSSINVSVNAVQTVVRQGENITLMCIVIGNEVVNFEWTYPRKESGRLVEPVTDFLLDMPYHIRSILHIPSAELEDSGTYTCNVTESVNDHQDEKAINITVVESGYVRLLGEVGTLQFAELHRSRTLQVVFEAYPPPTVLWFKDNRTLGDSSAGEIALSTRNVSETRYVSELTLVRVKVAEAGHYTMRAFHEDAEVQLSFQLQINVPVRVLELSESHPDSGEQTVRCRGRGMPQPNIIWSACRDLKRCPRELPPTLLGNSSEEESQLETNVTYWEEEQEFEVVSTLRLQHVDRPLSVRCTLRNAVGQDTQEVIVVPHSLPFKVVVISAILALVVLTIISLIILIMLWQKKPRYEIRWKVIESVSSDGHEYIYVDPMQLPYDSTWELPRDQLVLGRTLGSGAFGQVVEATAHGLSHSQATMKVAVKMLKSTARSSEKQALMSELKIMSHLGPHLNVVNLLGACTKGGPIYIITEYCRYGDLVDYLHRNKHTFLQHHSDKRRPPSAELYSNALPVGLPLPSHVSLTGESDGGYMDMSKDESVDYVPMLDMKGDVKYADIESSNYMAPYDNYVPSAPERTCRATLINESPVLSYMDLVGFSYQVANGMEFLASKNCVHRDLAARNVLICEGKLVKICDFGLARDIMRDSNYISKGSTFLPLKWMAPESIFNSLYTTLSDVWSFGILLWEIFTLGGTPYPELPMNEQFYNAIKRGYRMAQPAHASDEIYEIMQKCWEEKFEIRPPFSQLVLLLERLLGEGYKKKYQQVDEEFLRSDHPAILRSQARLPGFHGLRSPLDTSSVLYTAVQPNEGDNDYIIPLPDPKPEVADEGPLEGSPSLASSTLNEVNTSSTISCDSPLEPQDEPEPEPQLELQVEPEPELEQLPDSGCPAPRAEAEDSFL
UniProt P10721, 552-976 limits assumed: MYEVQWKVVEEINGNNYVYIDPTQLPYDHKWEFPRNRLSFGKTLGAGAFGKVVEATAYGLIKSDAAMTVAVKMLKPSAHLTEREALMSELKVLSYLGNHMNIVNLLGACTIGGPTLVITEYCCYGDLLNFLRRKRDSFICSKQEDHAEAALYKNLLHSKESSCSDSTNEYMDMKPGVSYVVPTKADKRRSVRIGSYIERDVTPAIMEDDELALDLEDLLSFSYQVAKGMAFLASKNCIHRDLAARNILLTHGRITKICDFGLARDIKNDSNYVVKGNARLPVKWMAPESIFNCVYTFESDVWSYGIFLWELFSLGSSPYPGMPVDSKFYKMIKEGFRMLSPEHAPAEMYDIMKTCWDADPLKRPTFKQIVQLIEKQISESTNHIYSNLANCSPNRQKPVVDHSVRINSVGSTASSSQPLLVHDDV
UniProt P07333, 553-961 limits assumed: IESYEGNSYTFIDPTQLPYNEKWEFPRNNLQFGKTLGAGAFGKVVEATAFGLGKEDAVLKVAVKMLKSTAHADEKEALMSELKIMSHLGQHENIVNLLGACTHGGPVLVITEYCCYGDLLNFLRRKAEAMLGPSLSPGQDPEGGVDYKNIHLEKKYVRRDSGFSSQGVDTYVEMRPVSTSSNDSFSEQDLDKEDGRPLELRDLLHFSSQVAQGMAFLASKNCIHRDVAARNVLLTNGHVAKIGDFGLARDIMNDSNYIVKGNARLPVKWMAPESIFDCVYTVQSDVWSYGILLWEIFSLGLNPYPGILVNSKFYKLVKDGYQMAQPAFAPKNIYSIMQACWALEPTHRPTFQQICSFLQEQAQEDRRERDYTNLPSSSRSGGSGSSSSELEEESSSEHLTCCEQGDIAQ

One assay concerns the target FLT-3 tyrosine kinase (Homo sapiens, UniProt P36888). Briefly: Alphascreen protein tyrosine kinase assay, FLT-3. It counts as biochemical. As to conditions: read-out: Flt3. A general note: Bead proximity is the source of the signal in Alpha formats.
The next assay has as its target PDGFR β tyrosine kinase (Homo sapiens, UniProt P09619). Briefly: Alphascreen protein tyrosine kinase assay, PDGFRβ. It counts as biochemical. The note with it: read-out: PDGFRβ.
Assay [1] concerns the target kinase domain of human c-kit (Homo sapiens, UniProt P10721). Briefly: Alphascreen protein tyrosine kinase assay, c-KIT. As to conditions: read-out: c-KIT. The assay is classed as biochemical.
The target of assay [2] is kinase domain of human CSF1-R (Homo sapiens, UniProt P07333). The experiment in a line: Alphascreen protein tyrosine kinase assay, CSF-1R. The assay is classed as biochemical. The note with it: read-out: CSF-1R.
The test system of the next assay is mNFS-60. The experiment in a line: Cellular assay (Alamar Blue), mNFS-60 with human M-CSF. The note with it: read-out: mNFS-60; human M-CSF at 20 ng/ml, 72 hr.
The subject of the next assay is Baf3-WT. The experiment in a line: Cellular assay (Alamar Blue), Baf3-WT with mouse IL-3. As to conditions: read-out: Baf3-WT; mouse IL-3 at 5 ng/ml, 72 hr. For orientation: The colour change of resazurin is a common sign of viable cells or microbes.

Take `Cc1cccc(C(=O)Nc2cccc([C@H](C)Nc3cncc(-c4ccc(N5CCN(C)CC5)nc4)n3)c2)c1`: the IC50 at FLT-3 tyrosine kinase is over 10 µM; at PDGFR β tyrosine kinase, under 1 µM; in assay [1] it was under 0.1 µM; in assay [2] it was under 0.1 µM.

Turning to `C[C@H](Nc1cncc(Cl)n1)c1cccc(NC(=O)c2cccc(C(F)(F)F)c2)c1` [Compound 114, (S)—N-(3-(1-(6-chloropyrazin-2-ylamino)ethyl)phenyl)-3-(trifluoromethyl)benzamide], the IC50 is under 10 µM with mNFS-60 and over 10 µM in the assay on Baf3-WT.

For the origin of these results see patent US9029386B2, “Pyridine derivatives useful as kinase inhibitors” (YM Biosciences Australia Pty Ltd, priority 2006, dated 2015).
